Values quoted from earlier work, collected in patent US6004969A, “Transdermal delivery of buprenorphine preparations” (National Science Council, priority 1997, dated 1999).

Assays:
mu-receptor = settings: words
kappa receptor = settings: words

CO[C@]12CC[C@@]3(C[C@@H]1[C@](C)(O)C(C)(C)C)[C@H]1Cc4ccc(O)c5c4[C@@]3(CCN1CC1CC1)[C@H]2O5 [Buprenorphine, 21-cyclo-propylmethyl-7-α-[(S)-1-hydroxy-1,2,2-trimethylpropyl]-6,14-endoethano-6,7,8,14-tetrahydroripavine]
mu-receptor activity (mu-receptor): mu-receptor agonist | kappa receptor activity (kappa receptor): kappa receptor antagonist
